# Only a part is listed here, and it is no random draw. The source made the active and inactive calls. Calls follow the shape of the dose curve; as a rule, active = well fitted inhibition curve with a large enough effect; inconclusive = small, poorly fitted or top-dose-only effect; inactive = no such curve, though single readings can be large or run the other way.
# Protein sequences, listed by entry. Tags and fused reporters are not part of them.
# UniProt O75874, whole entry, looked up, stated change not applied: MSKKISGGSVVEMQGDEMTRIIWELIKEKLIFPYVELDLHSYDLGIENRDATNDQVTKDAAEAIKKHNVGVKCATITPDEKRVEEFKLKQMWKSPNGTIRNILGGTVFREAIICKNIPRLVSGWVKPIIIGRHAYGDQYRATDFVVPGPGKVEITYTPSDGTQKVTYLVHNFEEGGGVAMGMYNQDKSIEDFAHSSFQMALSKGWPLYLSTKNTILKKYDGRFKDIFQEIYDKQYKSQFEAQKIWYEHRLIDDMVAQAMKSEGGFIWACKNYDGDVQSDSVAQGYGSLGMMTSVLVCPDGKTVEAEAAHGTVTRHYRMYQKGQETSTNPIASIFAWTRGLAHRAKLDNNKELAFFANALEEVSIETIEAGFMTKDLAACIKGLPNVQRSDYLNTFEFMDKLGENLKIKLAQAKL
# Target: Isocitrate dehydrogenase [NADP] cytoplasmic (Homo sapiens) (UniProt O75874)
# Test: qHTS for Inhibitors of mutant isocitrate dehydrogenase 1 (IDH1): qHTS; also: nearly all actives have a fitted effect of over 65% in size
# Details: IDH1-R132H enzyme, NADPH consumption, diaphorase/resazurin fluorescence; at 76.6 µM (top of the series)
# Method in brief: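 IDH1-R132H (0.5 ug/mL dispensed) in pH 7.5 Tris buffer was preincubated 30 min with compound, then given a substrate mix of 0.016 mM NADPH and 2 mM alpha-KG for 80 min at room temperature; remaining NADPH was read by diaphorase/resazurin fluorescence.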
# % is scaled to controls: 0 for no effect and ±100 for the full control effect.
row,Structure (SMILES),"activity change, negative = inhibition"
1,Nc1ccccc1[As](=O)(O)c1ccccc1,inactive: 9.86%
2,O=C(O)COc1ccc([As](=O)(O)O)cc1[N+](=O)[O-],inactive: 10.7%
3,O=P1(Nc2ncccn2)COc2ccccc2OC1,inactive: 1.86%
4,O=P1(Nc2ccc(Br)cn2)COc2ccccc2OC1,inactive: -3.08%
5,NS(=O)(=O)c1cccc(NC(=O)COC(=O)C(O)(c2ccccc2)c2ccccc2)c1,inactive: 5.9%
6,Cc1ccc(OCC(=O)OC2CN3CCC2CC3)cc1 (centres undefined),inactive: 11.6%
7,O=[As](O)(c1cccs1)c1cccs1,inactive: -0.805%
8,Nc1cccc([As](=O)(O)c2ccccc2)c1,inactive: -7.63%
9,CC1CCC(C(C)C)C(OP(=O)(Nc2ccccn2)c2ccccc2)C1 (centres undefined),inactive: -3.14%
10,Cc1ccc(C(=O)OC2CN3CCC2CC3)cc1 (centres undefined),inactive: 0%
11,Cc1nn(-c2ccccc2)c2c1P(=O)(N1CCOCC1)N(C)C(c1ccccc1)=N2 (centres undefined),inactive: 5.18%
12,CCCC1OP(=O)(Nc2ccccc2)OCC1CC (centres undefined),inactive: 5.23%
13,O=C(/C=C/c1ccccc1)OC1CN2CCC1CC2 (centres undefined),inactive: 8.79%
14,CN(C)C1(CNC(=O)c2ccc(S(C)(=O)=O)cc2)CCCCC1,inactive: -0.241%
15,COc1ccccc1CNC(=O)COC(=O)C(O)(c1ccccc1)c1ccccc1,inactive: 7.67%
16,CC1(CBr)Cn2c(nc3ccccc3c2=O)S1 (centres undefined),inactive: 4.83%
17,CC(C)/C=N\N=C(\N)N[N+](=O)[O-],inactive: 7.3%
18,CN(C(=O)Cc1ccc(Cl)c(Cl)c1)[C@@H]1CCCC[C@H]1N1CCCC1,inactive: 6.28%
19,CN(CCCl)Cc1cc(Cl)c(NC2=NCCN2)c(Cl)c1,inactive: 12.9%
20,CCOP(=O)(Nc1ccc(C)cn1)OCC,inactive: 6.73%
21,CCOP(=O)(NC(=NC(C)c1ccccc1)NC(C)c1ccccc1)OCC (centres undefined),inactive: -5.82%
22,O=P1(Nc2ccccn2)COc2ccccc2OC1,inactive: 4.74%
23,CCC1=CC2Cc3nc4ccc(Cl)cc4c(N)c3C(C1)C2 (centres undefined),inactive: 1.77%
24,CC(C)(C)C(=O)NC(Sc1ncccn1)C(Cl)(Cl)Cl (centres undefined),inactive: 3.65%
25,O=P1(N(CCCl)CCCl)NCCC(C(F)(F)F)O1 (centres undefined),inactive: -1.62%
26,Clc1n[nH]nc1-c1nn[nH][15n]1,inactive: 0%
27,CC(C)C(=O)NC(Sc1ccccc1)C(Cl)(Cl)Cl (centres undefined),inactive: 5.18%

row,Structure (SMILES),"activity change, negative = inhibition"
1,O=P(Nc1nccs1)(c1ccccc1)c1ccccc1,inactive: -2.85%
2,c1nnnn1CCn1cnnn1,inactive: -2.18%
3,O=[N+]([O-])c1ccc(O)c(/C=N/Nc2ccc([N+](=O)[O-])cc2[N+](=O)[O-])c1,inactive: 2.05%
4,CC(=O)NC(SC(=S)N(C)C)C(Cl)(Cl)Cl (centres undefined),inactive: -0.313%
5,O=[N+]([O-])c1ncn(CCn2cnc([N+](=O)[O-])n2)n1,inactive: 2.06%
6,O=[As](O)(c1ccccc1)c1ccc(O)cc1,inactive: 2.91%
7,Nc1ccc([As](=O)(O)c2ccc([N+](=O)[O-])cc2)cc1,inactive: 5.08%
8,C(Cc1nn[nH]n1)Cc1nn[nH]n1,inactive: -4.39%
9,O=C(OC1CN2CCC1CC2)c1cccc(Cl)c1 (centres undefined),inactive: 0%
10,COc1ccc(N)c([N+](=O)[O-])c1[N+](=O)[O-],inactive: 12.8%
11,O=P(Nc1ccccn1)(c1ccc(Br)cc1)c1ccc(Br)cc1,inactive: 0%
12,CN(C)C1(CNC(=O)c2ccc(Cl)c(S(N)(=O)=O)c2)CCCCC1,inactive: 3.92%
13,O=P(Nc1nc2ccccc2s1)(c1ccccc1)c1ccccc1,inactive: -6.54%
14,CC(=O)NC(SC(=S)N(CC(C)C)CC(C)C)C(Cl)(Cl)Cl (centres undefined),inactive: 2.95%
15,Cc1ccc(OP(=O)(Nc2ccccn2)Oc2ccc(C)cc2)cc1,inactive: -4.75%
16,COC(=O)c1cc2c(s1)N=C(c1ccccc1)N(C)P2(=O)N1CCOCC1 (centres undefined),inactive: -0.0845%
17,CCC(=O)N1C2C3N(C(=O)CC)C1C1N(C(=O)CC)C(C(N1C(=O)CC)N3C(=O)CC)N2C(=O)CC,inactive: 0.0387%
18,O=C(OC1CN2CCC1CC2)c1ccccc1 (centres undefined),inactive: 1.39%
19,CN(C)C(=O)Oc1noc2ccccc12,inactive: -3.24%
20,O=c1c2cc([N+](=O)[O-])ccc2[nH]c2c([N+](=O)[O-])cc([N+](=O)[O-])cc12,inactive: 36.3%
21,Cc1ccccc1OP(=O)(Nc1ccccn1)Oc1ccccc1C,inactive: 2.37%
22,CC(NC(=O)COC(=O)C(O)(c1ccccc1)c1ccccc1)c1ccccc1 (centres undefined),inactive: 8.89%
23,CCNC(=S)/N=C(\N)N[N+](=O)[O-],inactive: 8.8%
24,O=C(NC1CCS(=O)(=O)C1)NP(=S)(Oc1ccccc1)Oc1ccccc1 (centres undefined),inactive: 2.77%
25,Cc1ccc(NP(=O)(Oc2cccc(C)c2)Oc2cccc(C)c2)nc1,inactive: 4.56%
26,c1ccc(-c2nn[nH]n2)c(-c2nn[nH]n2)c1,inactive: -3.8%
27,O=P1(N(CCCl)CCCl)OCCC2CCCCN21 (centres undefined),inactive: 2.75%
